Measurements reported in ChEMBL document CHEMBL3627640 (Bioorg Med Chem, 2015).

Target: T1, Mitogen-activated protein kinase kinase kinase 7 (Homo sapiens, UniProt O43318)
T1 sequence (O43318 whole entry): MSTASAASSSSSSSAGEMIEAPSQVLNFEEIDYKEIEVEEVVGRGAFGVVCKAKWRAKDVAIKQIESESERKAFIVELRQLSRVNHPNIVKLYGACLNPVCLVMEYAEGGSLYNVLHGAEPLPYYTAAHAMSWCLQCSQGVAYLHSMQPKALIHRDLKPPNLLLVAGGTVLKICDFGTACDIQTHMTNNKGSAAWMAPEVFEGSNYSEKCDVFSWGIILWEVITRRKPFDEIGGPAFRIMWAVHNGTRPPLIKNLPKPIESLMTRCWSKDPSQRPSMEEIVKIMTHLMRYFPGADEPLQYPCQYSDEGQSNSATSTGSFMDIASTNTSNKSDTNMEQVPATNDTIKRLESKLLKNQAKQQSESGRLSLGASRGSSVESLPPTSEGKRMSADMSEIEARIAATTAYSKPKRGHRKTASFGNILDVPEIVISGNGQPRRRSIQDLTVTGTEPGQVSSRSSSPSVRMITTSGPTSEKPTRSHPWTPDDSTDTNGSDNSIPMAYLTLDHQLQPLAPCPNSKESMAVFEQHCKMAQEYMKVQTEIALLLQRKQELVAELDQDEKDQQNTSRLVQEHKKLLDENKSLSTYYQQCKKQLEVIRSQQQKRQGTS
Experiment: Inhibition of TAK1 (unknown origin) expressed in sf9 cells assessed as 32P level incorporation into myelin basic protein incubated for 5 mins at 30 degC by immunoprecipitation method

COc1cc(O)c2c(c1)/C=C/C[C@H](O)[C@H](O)C(=O)/C=C\C[C@H](C)OC2=O
IC50: 8.1 nM
